Laboratory results from PMC6592956, “Characterization of Porcine Hepatic and Intestinal Drug Metabolizing CYP450: Comparison with Human Orthologues from A Quantitative, Activity and Selectivity Perspective” (Scientific Reports, 2019).

System: porcine hepatic CYP450 enzymes
Experiment: Stepwise multiple linear regression of probe activity on CYP450 protein concentrations and on other metabolites
Conditions: Dependent Variable: OH_CZ, Concentration 6, with enzymes

B1: CYP2E1_s (protein, UniProt P79383 1-495, looked up)
Cytochrome P450 2E1: MTALGITVALLVWLVTLLLISIWKHIHSSWKLPPGPFPLPIVGNIFQLDLKNIPKSFTMLAERYGPVFTVYLGSRRIVVLHGYKAVKEVLLHYKNEFSGRGEIPTFQVHKDKGVIFNNGPTWRDTRRFSLTTLRDFGMGKQGNEQRIQREAHFLLEALRKTHGQPFDPTFLIGCAPCNVISDILFRQHFDYNDKTCLRLMSMFNENFYLLSTGWIQLYNNFSGYLRYLPGSHRKLMKNISEIKDYALERVKDHRDSLEPSCPRDFTDTLLMEMEKEKYSAEPIYTLDNIAVTVADMFFAGTETTSTTLRYGLLILMKYPEVEEKLHEEIDRVIGPNRIPAIKDRLVMPYLDAVVHEIQRFIDLIPSNLPHEATRDTDFRDYIIPKGTVVIPTLDSVLYDSQEFPEPEKFKPEHFLNENGKFKYSDHFKAFSAGKRVCVGEGLARMELFLFMAAILQHFNLKSLVDPKDIDLSPIAIGFAKIPPHYKLCVIPRSQV
**Q.** What does the source list for B1?
**A.** Unstandardized Coefficients B (Model 1, predictor CYP2E1_s): 95,371; Unstandardized Coefficients B (Model 2, predictors CYP2E1_s, CYP2A19_s): 113,525; Unstandardized Coefficients B (Model 3, predictors CYP2E1_s, CYP2A19_s, CYP2C49_s): 91,073
